This is an account of results in ChEMBL document CHEMBL1136958, “Design and optimization of renin inhibitors: Orally bioavailable alkyl amines” (Bioorg Med Chem Lett, 2009).

Protein sequences, listed by entry. Tags and fused reporters are not part of them. Lines headed by an entry give the natural chain unless they say otherwise; changes in a name come on top.
UniProt P00797: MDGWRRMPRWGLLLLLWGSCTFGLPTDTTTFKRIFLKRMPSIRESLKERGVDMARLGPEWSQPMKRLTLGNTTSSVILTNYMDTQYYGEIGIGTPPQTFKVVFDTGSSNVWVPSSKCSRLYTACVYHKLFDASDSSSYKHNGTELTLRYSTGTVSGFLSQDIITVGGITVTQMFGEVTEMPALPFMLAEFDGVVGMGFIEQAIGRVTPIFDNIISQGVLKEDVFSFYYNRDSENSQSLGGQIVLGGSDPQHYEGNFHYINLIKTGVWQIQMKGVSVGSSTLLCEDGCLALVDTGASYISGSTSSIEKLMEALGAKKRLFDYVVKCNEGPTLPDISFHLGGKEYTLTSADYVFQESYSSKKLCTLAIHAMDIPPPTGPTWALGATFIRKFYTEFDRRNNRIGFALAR

The target in the experiment is Renin (Homo sapiens, UniProt P00797). Put plainly: Inhibition of human recombinant renin.

A word on the IC50: it is the concentration at which inhibition is half-maximal.

Structures are written as SMILES.

For `CNC[C@H](CC1CCCCC1)NC(=O)N1CCC[C@@H]([C@@](O)(CCCCOC)c2cccc(Cl)c2)C1`, the IC50 came to 0.47 nM.
